Laboratory results taken from patent US8372412B2, “Bioassay and peptides for use therein” (Rapid Biosensor Systems Limited, priority 2005, dated 2013).
“Also recorded” adds a separate entry of the source.

Test: Heat stability of peptide variants
Assay type: physicochemical
Conditions: C-terminal variants of SGGNNSPA-X; no method or data given

In the case of SGGNNSPAM [SEQ ID 18], the heat stability is reported as “particularly good Leu-heat stability; also recorded: increased heat stability”.
